We go through two molecules from ChEMBL document CHEMBL3763143, “Novel morpholine scaffolds as selective dopamine (DA) D3 receptor antagonists” (Bioorg Med Chem Lett, 2016).

By UniProt entry, the sequences of proteins in these tests, tags left out.
UniProt P35462, whole entry: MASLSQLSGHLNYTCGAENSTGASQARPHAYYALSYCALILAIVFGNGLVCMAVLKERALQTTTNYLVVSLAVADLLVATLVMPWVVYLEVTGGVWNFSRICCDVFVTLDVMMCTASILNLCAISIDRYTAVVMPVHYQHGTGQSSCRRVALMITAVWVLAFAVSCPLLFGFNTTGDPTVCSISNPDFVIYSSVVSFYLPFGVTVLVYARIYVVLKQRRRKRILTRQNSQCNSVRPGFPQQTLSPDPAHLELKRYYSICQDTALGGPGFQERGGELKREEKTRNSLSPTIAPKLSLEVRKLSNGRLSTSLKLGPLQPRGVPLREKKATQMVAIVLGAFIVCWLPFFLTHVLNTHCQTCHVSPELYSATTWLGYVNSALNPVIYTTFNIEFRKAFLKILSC

The target of assay [1] is T1, D(3) dopamine receptor (Homo sapiens, UniProt P35462). Nature of the assay: Agonist activity at human dopamine D3 receptor expressed in CHO cells after 90 mins by [35S]-GTPgamma S assay. The class given is cell-based.
Assay [2] deals with T1, D(3) dopamine receptor. Nature of the assay: Antagonist activity at human dopamine D3 receptor expressed in CHO cells after 90 mins by [35S]-GTPgamma S assay. The class given is cell-based. For orientation: GTPγS resists hydrolysis and so accumulates on activated G proteins.

For orientation: Ki means the equilibrium dissociation constant of an inhibitor or competing ligand from its target. A higher Ki goes with a looser hold on the target.

Turning to `Cc1ncoc1-c1nnc(SCCCN2CCOC(c3ccc(C(F)(F)F)cc3)C2)n1C` (racemic), the Ki on D(3) dopamine receptor [1] was more than 10 µM.

`Cc1ncoc1-c1nnc(SCCCN2CCOC(c3ccc(C(F)(F)F)cc3)C2)n1C` (stereo in doubt; 9): on D(3) dopamine receptor [2], the affinity corresponds to a Ki of 0.0251 µM.
